Assay results taken from BindingDB's records for doi:10.1007/s00210-003-0860-y (UniversitÄT WÜRzburg, 2004).

Protein sequences, listed by entry. Tags and fused reporters are not part of them.
UniProt P08588, whole entry: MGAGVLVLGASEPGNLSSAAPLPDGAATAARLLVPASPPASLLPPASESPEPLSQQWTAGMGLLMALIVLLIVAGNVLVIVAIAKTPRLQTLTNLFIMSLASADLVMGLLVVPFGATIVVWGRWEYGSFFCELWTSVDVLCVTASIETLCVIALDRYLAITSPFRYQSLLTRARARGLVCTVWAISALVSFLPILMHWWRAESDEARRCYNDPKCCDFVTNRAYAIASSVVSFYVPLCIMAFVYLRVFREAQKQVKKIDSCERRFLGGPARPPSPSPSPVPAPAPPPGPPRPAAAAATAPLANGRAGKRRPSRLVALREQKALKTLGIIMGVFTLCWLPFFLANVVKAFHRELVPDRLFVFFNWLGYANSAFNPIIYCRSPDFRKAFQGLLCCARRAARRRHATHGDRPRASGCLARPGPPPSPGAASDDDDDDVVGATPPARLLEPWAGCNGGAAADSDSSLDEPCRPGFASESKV

Target: Beta-1 adrenergic receptor (Homo sapiens, UniProt P08588)

Ki: 3.97 µM
Compound: CNCC(O)c1ccc(O)c(O)c1 (stereo unspecified) [EPINEPHRINE]
